Sequences of proteins named here, by UniProt entry; tags and fusion partners are left off. Residues count along the entry.
UniProt P61073, whole entry: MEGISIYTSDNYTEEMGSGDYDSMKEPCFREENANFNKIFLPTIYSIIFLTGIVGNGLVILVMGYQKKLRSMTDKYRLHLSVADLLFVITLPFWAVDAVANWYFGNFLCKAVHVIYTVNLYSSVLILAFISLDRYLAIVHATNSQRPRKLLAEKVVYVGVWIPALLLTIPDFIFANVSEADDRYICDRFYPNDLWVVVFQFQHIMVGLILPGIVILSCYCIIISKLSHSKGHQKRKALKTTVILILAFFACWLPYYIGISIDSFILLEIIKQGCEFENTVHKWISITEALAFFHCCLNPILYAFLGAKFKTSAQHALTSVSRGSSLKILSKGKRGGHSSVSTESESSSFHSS
UniProt P48061, 22-89: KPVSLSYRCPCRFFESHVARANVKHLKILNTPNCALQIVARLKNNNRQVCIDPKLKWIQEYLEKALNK

According to paper PMC4484427:

Biological target: C-X-C chemokine receptor type 4 (CXCR4) (human (endogenous in H1299)) (UniProt P61073)

Substance: Stromal cell-derived factor 1α (SDF-1α) (from UniProt P48061-2 22-89) (ligand)
- Matrigel invasion of H1299 cells, 12 h, SDF-1α plus 2 Gy irradiation against control cells; abrogated by AMD3100: 1.87 fold
